ChEMBL document CHEMBL5042526, “Design, Synthesis, and Biological Evaluation of Triazolone Derivatives as Potent PPARα/δ Dual Agonists for the Treatment of Nonalcoholic Steatohepatitis” (J Med Chem, 2022)

Amino acid sequences for entries named in this document (tags omitted). A change or cut given only in a name is not applied to a line headed by its entry.
UniProt P37231: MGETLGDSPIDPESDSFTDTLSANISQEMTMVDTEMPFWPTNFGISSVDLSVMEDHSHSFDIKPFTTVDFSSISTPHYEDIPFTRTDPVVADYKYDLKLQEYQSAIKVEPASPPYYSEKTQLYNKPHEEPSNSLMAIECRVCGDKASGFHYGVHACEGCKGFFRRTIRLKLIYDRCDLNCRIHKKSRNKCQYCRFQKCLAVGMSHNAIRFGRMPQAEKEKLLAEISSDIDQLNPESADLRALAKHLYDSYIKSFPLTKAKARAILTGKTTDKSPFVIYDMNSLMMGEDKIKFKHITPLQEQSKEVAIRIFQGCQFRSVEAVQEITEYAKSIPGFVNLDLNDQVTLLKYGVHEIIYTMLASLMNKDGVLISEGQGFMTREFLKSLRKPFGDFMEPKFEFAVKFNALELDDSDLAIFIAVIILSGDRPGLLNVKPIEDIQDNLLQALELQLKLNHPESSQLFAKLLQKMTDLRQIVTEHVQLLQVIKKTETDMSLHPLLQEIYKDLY

How the values were obtained:
Settings in all cases: filed as agonist, dose 10.0 nM
[1] = target: T1, Peroxisome proliferator-activated receptor alpha (Homo sapiens) (UniProt Q07869)
T1 sequence (whole entry): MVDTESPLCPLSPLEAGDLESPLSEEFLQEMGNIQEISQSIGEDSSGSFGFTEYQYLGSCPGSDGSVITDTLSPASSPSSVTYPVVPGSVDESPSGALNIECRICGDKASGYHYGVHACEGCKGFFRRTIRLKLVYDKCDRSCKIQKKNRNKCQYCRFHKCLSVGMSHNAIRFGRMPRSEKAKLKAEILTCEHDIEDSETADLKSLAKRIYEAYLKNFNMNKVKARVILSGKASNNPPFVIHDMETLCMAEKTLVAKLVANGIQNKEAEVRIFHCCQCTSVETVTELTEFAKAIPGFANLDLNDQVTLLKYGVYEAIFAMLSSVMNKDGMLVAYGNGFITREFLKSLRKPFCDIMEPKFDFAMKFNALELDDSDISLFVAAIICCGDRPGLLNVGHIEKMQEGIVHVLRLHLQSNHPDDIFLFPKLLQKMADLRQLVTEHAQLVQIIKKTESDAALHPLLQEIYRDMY

[2] = target: Peroxisome proliferator-activated receptor gamma (Homo sapiens, UniProt P37231)
[3] = target: T2, Peroxisome proliferator-activated receptor delta (Homo sapiens) (UniProt Q03181)
T2 sequence (whole entry): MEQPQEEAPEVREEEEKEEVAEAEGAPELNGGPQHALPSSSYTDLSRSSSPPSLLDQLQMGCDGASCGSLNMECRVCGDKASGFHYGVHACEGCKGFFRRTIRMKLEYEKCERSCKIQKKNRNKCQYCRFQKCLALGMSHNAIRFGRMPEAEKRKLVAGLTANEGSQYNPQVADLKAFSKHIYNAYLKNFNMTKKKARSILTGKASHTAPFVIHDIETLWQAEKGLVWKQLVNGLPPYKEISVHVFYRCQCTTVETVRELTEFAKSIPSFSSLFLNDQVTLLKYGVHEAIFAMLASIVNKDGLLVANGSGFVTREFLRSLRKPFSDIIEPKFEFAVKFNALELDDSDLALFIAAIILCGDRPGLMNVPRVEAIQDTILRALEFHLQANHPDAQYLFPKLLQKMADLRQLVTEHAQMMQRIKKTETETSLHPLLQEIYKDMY

Row | Structure (SMILES) | Emax [1] | Emax [2] | Emax [3]
1 | CC(C)(Oc1ccc(Cn2ncn(-c3ccc(C(F)(F)F)cc3)c2=O)cc1)C(=O)O | – | – | 93%
2 | Cc1cc(Cn2ncn(-c3ccc(C(F)(F)F)cc3)c2=O)ccc1OC(C)(C)C(=O)O | 108% | – | 85%
3 | CC(C)(Oc1ccc(Cn2ncn(-c3ccc(C(F)(F)F)cc3)c2=O)cc1C(F)(F)F)C(=O)O | – | 115% | 102%
4 | CCc1cc(Cn2ncn(-c3ccc(C(F)(F)F)cc3)c2=O)cc(CC)c1OC(C)(C)C(=O)O | 131% | – | 83%
5 | CC(C)(Oc1c(F)cc(Cn2ncn(-c3ccc(C(F)(F)F)cc3)c2=O)cc1F)C(=O)O | – | – | 76%
6 | Cc1cc(Cn2ncn(-c3ccc(OC(F)(F)F)cc3)c2=O)cc(C(F)(F)F)c1OC(C)(C)C(=O)O | 98% | – | 111%
7 | CC(C)(Oc1ccc(Cn2ncn(-c3ccc(OC(F)(F)F)cc3)c2=O)cc1C(F)(F)F)C(=O)O | 134% | 98% | –
8 | CC(C)(Oc1c(Cl)cc(Cn2ncn(-c3ccc(C(F)(F)F)cc3)c2=O)cc1Cl)C(=O)O | 101% | 87% | –

Now from value to compound:

Row | Emax [1] | Emax [2] | Emax [3] | Structure (SMILES)
9 | 92% | 134% | – | Cc1cc(Cn2ncn(-c3ccc(C(C)C)cc3)c2=O)cc(C)c1OC(C)(C)C(=O)O
10 | – | 46% | 101% | Cc1cc(CCn2ncn(-c3ccc(C(F)(F)F)cc3)c2=O)cc(C)c1OC(C)(C)C(=O)O
11 | 92% | 96% | – | Cc1cc(SCn2ncn(-c3ccc(C(F)(F)F)cc3)c2=O)cc(C)c1OC(C)(C)C(=O)O
12 | – | – | 117% | Cc1cc(Cn2ncn(-c3cccc(C(F)(F)F)c3)c2=O)cc(C)c1OC(C)(C)C(=O)O
13 | – | 150% | 98% | Cc1cc(Cn2ncn(-c3ccc(C(F)(F)F)cc3)c2=O)cc(C(F)(F)F)c1OC(C)(C)C(=O)O
14 | – | – | 93% | Cc1cc(Cn2ncn(-c3ccc(-c4ccccc4)cc3)c2=O)cc(C)c1OC(C)(C)C(=O)O
15 | 102% | – | – | Cc1cc(Cn2ncn(-c3ccc(C(F)(F)F)cc3)c2=O)cc(C)c1OC(C)(C)C(=O)O
16 | – | 151% | 122% | Cc1cc(Cn2ncn(-c3ccc(Br)cc3)c2=O)cc(C)c1OC(C)(C)C(=O)O
17 | 106% | – | 116% | Cc1cc(Cn2ncn(-c3ccc(F)cc3)c2=O)cc(C)c1OC(C)(C)C(=O)O
18 | – | 80% | – | Cc1cc(Cn2ncn(-c3ccccc3)c2=O)cc(C)c1OC(C)(C)C(=O)O
